Laboratory results from ChEMBL document CHEMBL1123981, “Arylpiperazine derivatives as high-affinity 5-HT1A serotonin ligands” (J Med Chem, 1988).

The chains behind the UniProt entries cited, without tags or fusion partners.
UniProt P19327, whole entry: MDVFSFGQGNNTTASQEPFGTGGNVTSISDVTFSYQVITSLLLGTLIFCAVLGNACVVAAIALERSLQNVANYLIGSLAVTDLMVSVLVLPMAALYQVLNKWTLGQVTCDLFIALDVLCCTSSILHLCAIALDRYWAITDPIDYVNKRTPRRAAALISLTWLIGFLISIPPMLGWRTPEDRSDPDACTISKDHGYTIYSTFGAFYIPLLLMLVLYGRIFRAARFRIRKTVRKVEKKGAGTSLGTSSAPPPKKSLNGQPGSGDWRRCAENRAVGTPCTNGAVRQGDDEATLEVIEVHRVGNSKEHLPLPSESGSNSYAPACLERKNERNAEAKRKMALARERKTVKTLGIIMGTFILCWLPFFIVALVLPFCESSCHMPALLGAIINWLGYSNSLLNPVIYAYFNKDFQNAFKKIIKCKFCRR

Molecular target: 5-hydroxytryptamine receptor 1A (Rattus norvegicus, UniProt P19327)
Experiment: Evaluated for binding affinity towards 5-hydroxytryptamine 1A receptor in rat brain
Assay type: tissue-based
How it was run: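 Rat hippocampal membranes (male Sprague-Dawley, ca. 220 g), homogenized in 50 mM Tris-HCl/0.5 mM Na2EDTA/10 mM MgSO4, preincubated 15 min at 37 °C, washed twice. Assay: 0.1 nM [3H]8-OH-DPAT, 4 mg wet tissue, 50 mM Tris-HCl pH 7.7 with 10 μM pargyline, 0.1% ascorbate; eleven competitor concentrations; 20 min at 37 °C; glass-fibre filtration, scintillation counting; nonspecific with 1 μM 8-OH-DPAT; Ki by Cheng-Prusoff.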

- Ki: 70 nM
SMILES: CC1(C)CC(=O)N(CCCCN2CCN(c3ncccn3)CC2)C(=O)C1 [GEPIRONE]
